pEC50: −log10 of the molar value.
Test system: NQO1 specific enzyme activity in BEAS-2B cells (marker for NRF2 activation)
Assay: Beas2B NQO1 MTT Assay
Settings: NQO1 specific activity induction, 48 hours with compound
Description: NAD(P)H:quinone oxidoreductase 1 (NQO1), also called DT diaphorase, is a homodimeric FAD-containing enzyme that catalyses obligatory NAD(P)H-dependent two-electron reductions of quinones and protects cells against the toxic and neoplastic effects of free radicals and reactive oxygen species arising from one-electron reductions. The transcription of NQO1 is finely regulated by NRF2, and thus NQO1 activity is a good marker for NRF2 activation. On day one, frozen BEAS-2B cells (ATCC) were thawed in a water bath, counted, and re-suspended at a concentration of 250,000 cells/mL. Fifty microliters of cells were plated in 384 well black clear-bottomed plates. Plates were incubated at 37° C., 5% CO2 overnight. On day two, plates were centrifuged and 50 nL of compound or controls were added to the cells. Plates were then incubated at 37° C., 5% CO2 for 48 hours. […] Fifty microliters of MTT cocktail was added to each well, plate was centrifuged, and analysed on an Envision plate reader (Perkin Elmer) using Absorbance 570 nm label for 30 minutes. Product formation was measured kinetically and the pEC50 of NQO1 specific activity induction was calculated by plotting the change in absorbance (Delta OD/min) versus the log of compound concentration followed by 3-parameter fitting. […]

CC[C@H]1Cc2ccc(C(F)(F)F)cc2S(=O)(=O)N(Cc2cccc(-n3ccc(C(=O)O)c3[C@@H]3C[C@H]3c3cn(C)nn3)c2)C1
pEC50: > 9.00
